Results taken from US20050153947A1, “Methods and reagents for the treatment of diseases and disorders associated with increased levels of proinflammatory cytokines” (priority 2002, published 2005).

Tested on: IL-2
Test: IL-2 secretion by white blood cells/PBMC stimulated with phorbol 12-myristate 13-acetate and ionomycin (PI), ELISA
Settings: R(+) fluoxetine alone; concentration (μM), 58 to 0.028

With `CNCC[C@@H](Oc1ccc(C(F)(F)F)cc1)c1ccccc1` [R(+) Fluoxetine] the “percent inhibition of cytokine secretion, IL-2” value was 72%.
